Results on six molecules are retold here after ChEMBL document CHEMBL2203245 (Bioorg Med Chem Lett, 2012).

Sequences of proteins named here, by UniProt entry; tags and fusion partners are left off.
UniProt P35372, whole entry: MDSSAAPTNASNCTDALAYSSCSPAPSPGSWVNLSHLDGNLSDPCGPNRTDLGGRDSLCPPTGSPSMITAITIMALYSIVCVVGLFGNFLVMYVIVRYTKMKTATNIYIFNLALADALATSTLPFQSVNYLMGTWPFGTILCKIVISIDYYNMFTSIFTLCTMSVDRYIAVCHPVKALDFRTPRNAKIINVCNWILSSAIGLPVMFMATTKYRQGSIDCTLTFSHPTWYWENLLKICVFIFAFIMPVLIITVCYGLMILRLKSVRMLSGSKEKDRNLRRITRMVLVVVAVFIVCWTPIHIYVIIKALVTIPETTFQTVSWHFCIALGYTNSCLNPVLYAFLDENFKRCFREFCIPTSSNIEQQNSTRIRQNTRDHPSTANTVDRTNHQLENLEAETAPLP

What is called Emax is the greatest response seen or fitted, relative to the assay's reference. By Ki is commonly meant the equilibrium dissociation constant of an inhibitor or competing ligand from its target. By EC50 is commonly meant the concentration that produces a half-maximal response. One may read the IC50 as the midpoint of a concentration-inhibition curve.

Test [1] is filed under the species Homo sapiens. The experiment in a line: Selectivity ratio of Ki for human delta opioid receptor to Ki for human mu opioid receptor.
The species entered for test [2] is Homo sapiens. The experiment in a line: Selectivity ratio of Ki for human kappa opioid receptor to Ki for human mu opioid receptor.
In test [3] the target is T1, Mu-type opioid receptor (Homo sapiens, UniProt P35372). Briefly: Partial agonist activity at human mu opioid receptor expressed in CHO cells assessed as [35S]GTPgammaS binding after 60 mins by scintillation counting relative to untreated-control. In kind it is functional, cell-based. In general terms: GTPγS is a poorly hydrolysed GTP analogue; its binding reports G protein activation.

The target of test [4] is T1, Mu-type opioid receptor. The experiment in a line: Antagonist activity at human mu opioid receptor expressed in CHO cells assessed as inhibition of DAMGO-induced [35S]GTPgammaS binding after 60 mins by scintillation counting relative to untreated-control. In kind it is functional, cell-based.
Test [5] deals with T1, Mu-type opioid receptor. Briefly: Displacement of [3H]DAMGO from human mu opioid receptor expressed in CHO cells after 60 mins by scintillation counting. The format is cell-based.
The target in test [6] is T1, Mu-type opioid receptor. Briefly: Partial agonist activity at human mu opioid receptor expressed in CHO cells assessed as [35S]GTPgammaS binding after 60 mins by scintillation counting. In kind it is functional, cell-based.
The target in test [7] is T1, Mu-type opioid receptor. Briefly: Antagonist activity at human mu opioid receptor expressed in CHO cells assessed as inhibition of DAMGO-induced [35S]GTPgammaS binding after 60 mins by scintillation counting. In kind it is functional, cell-based.

Regarding `CC1C2Cc3ccc(C(=O)NCCc4ccc(-c5ccccc5O)cc4)cc3C1(C)CCN2CC1CC1` (racemic), the Ratio Ki in the test listed under Homo sapiens [1] worked out at 43; in the test filed under Homo sapiens [2], 375.

For the molecule `COc1ccc2cc(CCNC(=O)c3ccc4c(c3)C3(C)CCN(CC5CC5)C(C4)C3C)ccc2c1` (racemic), the Ratio Ki stood at 34 in the test filed under Homo sapiens [1] and 7 in the test listed under Homo sapiens [2].

On to `COc1cccc(-c2ccc(CCNC(=O)c3ccc4c(c3)C3(C)CCN(CC5CC5)C(C4)C3C)cc2)c1` (racemic), for which the Emax on Mu-type opioid receptor [3] turned out to be 25%. Moreover, on Mu-type opioid receptor [4], the Imax was 75%.

Molecule `C[C@H]1[C@H]2Cc3ccc(C(=O)NCCc4ccc(-c5ccc(O)cc5)cc4)cc3[C@]1(C)CCN2CC1CC1` came in with a Ki at Mu-type opioid receptor [5] of 0.0049 nM. Also, on Mu-type opioid receptor [6], the EC50 is 0.5 nM. In addition, the IC50 at Mu-type opioid receptor [7] turned out to be 4.5 nM.

With `CC1C2Cc3ccc(C(=O)NCCc4ccc(-c5ccc6c(c5)OCO6)cc4)cc3C1(C)CCN2CC1CC1` (racemic), at Mu-type opioid receptor [3], the Emax was 29%. Further, at Mu-type opioid receptor [4], the Imax came to 75%.

In the case of `CCOc1ccc(-c2ccc(CCNC(=O)c3ccc4c(c3)C3(C)CCN(CC5CC5)C(C4)C3C)cc2)cc1` (racemic), the Ratio Ki in the test listed under Homo sapiens [1] and in the test filed under Homo sapiens [2] was 5 throughout.
